This is a selection; strong and weak results do not stand in their true shares. Activity calls are given as the source filed them.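 The calls were made as follows: active = average inhibition across triplicates above the hit cutoff set in the primary screen (cut at about 32% in these data); inactive = the rest.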
Target: Female germline-specific tumor suppressor gld-1 (Caenorhabditis elegans) (UniProt Q17339)
Experiment: GLD-1/TGE RNA binding inhibitors, retest, confirmation, biochemical, fluorescence polarization, triplicate (AID 2459);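 also: 0% = GLD-1 with RNA probe and DMSO and 100% = wells lacking GLD-1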
Conditions: GLD-1/FL-TGE RNA fluorescence polarization, at 5.96 µM, hits give high values

By UniProt entry, the sequences of proteins in these tests, tags left out. Where a name states a change or a piece, a line headed by the entry shows the natural chain unless it says otherwise.
UniProt Q17339: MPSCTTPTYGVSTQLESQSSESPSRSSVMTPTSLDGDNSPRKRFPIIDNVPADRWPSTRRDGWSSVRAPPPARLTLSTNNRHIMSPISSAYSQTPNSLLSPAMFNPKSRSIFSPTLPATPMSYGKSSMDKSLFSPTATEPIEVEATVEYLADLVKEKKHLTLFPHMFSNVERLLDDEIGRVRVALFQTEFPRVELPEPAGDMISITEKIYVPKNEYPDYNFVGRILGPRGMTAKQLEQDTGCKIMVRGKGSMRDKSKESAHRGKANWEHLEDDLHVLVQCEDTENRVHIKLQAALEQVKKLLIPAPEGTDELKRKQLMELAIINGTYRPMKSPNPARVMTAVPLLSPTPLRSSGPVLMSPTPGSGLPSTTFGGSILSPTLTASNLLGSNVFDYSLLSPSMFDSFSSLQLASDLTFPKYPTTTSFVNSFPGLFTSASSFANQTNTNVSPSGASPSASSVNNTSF

`CS(=O)(=O)c1cc([N+](=O)[O-])c2no[n+]([O-])c2c1` was tested, and the inhibition was inactive: -17.3%.
